Results on one substance are retold here after patent publication US20220409601A1, “COMBINATION CANNABINOID-NAD+ PRECURSOR FORMULATION FOR TREATMENT OF INFLAMMATION AND METHODS RELATED THERETO” (priority 2019, published 2022).

This data set deals with chondrocytes (C-28/I2). In words: toxicity screen, maximum tolerable concentration in chondrocytes. Particulars: 24 hours post-treatment, serum free, microscopy (vacuolation, blebbing, reduced cell count). An excerpt:
A clonal derivative of ATCC-certified normal chondrocytes was used for a study to determine cytokine expression. The parent line was originally derived from costal cartilage of adolescent […]. The cell line used is C-28/I2 accession number CVCL 0187. The cells were immortalized via retroviral vector-mediated SV40 Large T antigen expression. Cells were confirmed negative for mycoplasma contamination and genotyped by STR analysis to verify cell identity. This cell line is widely used as a model for studying normal and pathological cartilage repair mechanisms and inflammation.
The cells were cultured at 37° C. with 5% CO2, DMEM/F12 media supplemented with 10% heat-inactivated fetal bovine serum. Antimicrobials were not added to the media. Cells were maintained between 40 and 80% confluency to avoid terminal differentiation. Cells used for the experiments had been passaged no more than ten times prior to each experiment.
A series of pilot studies were performed to design the final full-scale experiment. First, a toxicity screen for each test compound was performed to establishment maximum tolerable concentrations in this model system. Second, assays were run to establish the optimal means of inducing a pro-inflammatory state in the cell culture system. […]

nicotinamide ribose registered a maximum tolerable concentration of 1 mM.
